G9a block = G9a (human) methyltransferase inhibition | Q96KQ7 | G9a H3K9 monomethylation, AlphaScreen, 2 h | Potency, µM (highest dose often 102 µM), without a hit: at the top dose activity, negative = inhibition, actives largely listed as inhibitors | hit rate 8.8% among 350,000; note: potency is the fitted concentration of half-maximal effect; % is set by controls: 0 for no effect and ±100 for the full control effect; nearly all actives have a fitted effect of over 75% in size
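Compounds were preincubated with 20 nM G9a for 15 min, after which biotinylated H3K9 peptide (500 nM) and SAM (20 uM) started a 2 h room-temperature reaction. Monomethylated product was quantified by antibody-based AlphaScreen chemiluminescence.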
miR-21 reporter = raises the signal of a miR-21 reporter; Potency, µM (doses to about 38.3 µM), inactives show top-dose reporter change, positive = more light; HeLa miR-21 FLuc reporter, luciferase, 48 h; AID 2288; 340,000 tested, under 10 active; active = well fitted rising curve with a large enough effect; inconclusive = small, poorly fitted or top-dose-only effect; inactive = no such curve, though single readings can be large or run the other way;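 further: % of control where 0% means no effect; miR-21 action dims this reporter so a rising signal means less miR-21 action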
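Using DMEM plus 10% FBS, HeLa miR-21-FLuc cells are incubated with test compounds (final up to about 40uM) for 48 hours; firefly luciferase signal is then imaged following reagent-mediated lysis.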
Sfp PPTase inh = inhibitors of Bacillus subtilis Sfp phosphopantetheinyl transferase. Q9F4F7. Biochemical Sfp PPTase activity, qHTS. Potency, µM, without a hit: max response, negative = inhibition, most hits filed as inhibitors. 3.5% of 310,000 active; active = well fitted inhibition curve with a large enough effect; inconclusive = small, poorly fitted or top-dose-only effect, or another doubt; inactive = no such curve, though single readings can be large or run the other way;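 note: the enzyme is Sfp with the accession as filed and its product quenches rhodamine fluorescence; potency is the fitted concentration of half-maximal effect; 0% = enzyme reaction without inhibitor and -100% = no enzyme wells; top concentration of the series not given in the record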
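Sfp 15 nM + cpd, 15 min RT; start w/ rhodamine-CoA 5 uM, BHQ-2-YbbR 12.5 uM (final); 50 mM Hepes pH 7.6, 10 mM MgCl2, 0.01% NP-40, 0.01% BSA; read 525/598 nm at 0 and 30 min.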
KDM4E inh = inhibitors of human JMJD2E histone demethylase | hit rate 1.6% among 230,000 | Potency, µM (doses to about 57.1 µM), for the others: at the highest dose activity change, negative = inhibition, most hits filed as inhibitors | B2RXH2 | JMJD2E catalytic domain, FDH-coupled NADH fluorescence (FDH is formaldehyde dehydrogenase);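 note: potency is the fitted concentration of half-maximal effect; 0% = wells with enzyme and -100% = buffer wells without enzyme; nearly all actives have a fitted effect of over 50% in size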
ALDH1A1 inh = ALDH1A1 (human) enzyme inhibition; P00352; Purified ALDH1A1, NADH fluorescence, propionaldehyde substrate; Potency, µM (doses to about 75.3 µM), for the others: top-dose activity, negative = inhibition, usual class: inhibitors; hit rate 7.3% among 220,000; AID 1030; active = well fitted inhibition curve with a large enough effect, not every such curve was filed as active; inconclusive = small, poorly fitted or top-dose-only effect, or another doubt; inactive = no such curve, though single readings can be large or run the other way;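 note: potency is the fitted concentration of half-maximal effect; plate controls were no enzyme wells and a reference inhibitor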
Lamin A splicing = LMNA splicing modulation. hit rate 0.01% among 200,000. Potency, µM (titrated, usually from 46.1 µM), without a hit: at the top dose ratio change, negative = inhibition, most hits filed as inhibitors. HeLa LMNA splicing GFP/RFP minigene ratio, 48 h; active = well fitted inhibition curve with a large enough effect in the signal ratio, with a control signal flat, not every such curve was filed as active; inconclusive = small, poorly fitted or top-dose-only effect, or effect the other way, or a change in a side signal; the % refers to the signal ratio; note: potency is the fitted concentration of half-maximal effect; % is set by controls: 0 for no effect and ±100 for the full control effect
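Read-out is the ratio of GFP to DsRed2 object intensity, acquired by 488 nm laser-scanning cytometry on HeLa lamin A-EGFP minigene reporter cells. Compound incubation 48 hrs at 37 °C in Opti-MEM with 2% FBS; DMSO 0.5% final.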
The depositor's hits bear a star; ? = inconclusive; . = no result given; [ ] = dose if it differs, or a comment. An excerpt weighted towards active compounds, which were near 13% of everything screened. Unless noted, calls come from the whole dose curve; as a rule, active = well fitted curve in the direction sought with a large enough effect; inconclusive = small, poorly fitted or top-dose-only effect, or another doubt; inactive = no such curve, though single readings can be large; an effect the other way counts as inactive or inconclusive.

1: COc1ccc(-n2c(C)cc(C(=O)CCl)c2C)cc1
2: COc1ccc(-n2c(C)cc(C(=O)COC(=O)Cn3cnc4ccccc43)c2C)cc1
3: Cc1cc(-n2c(C)cc(C(=O)CCl)c2C)no1
4: Cc1cc(-n2c(C)cc(C(=O)CSc3nnnn3-c3ccccc3)c2C)no1
5: COc1ccc(-n2c(C)cc(C(=O)CN3C(=O)c4ccccc4C3=O)c2C)cc1
6: CC1CC(C)CN(C(=O)CSc2ncnc3sccc23)C1 (stereo not drawn)
7: Cc1ccc(-n2nnnc2SCC(=O)c2cc(C)n(-c3cc(C)on3)c2C)c(C)c1
8: O=S(=O)(Nc1cccc(-c2ccc(N3CCCCC3)nn2)c1)c1cccc(F)c1

assay / compound,1,2,3,4,5,6,7,8
G9a block,56µM*,16µM*,50µM*,-38%[59 µM],1%[59 µM],9%[0.501 µM],-13%[59 µM],30%[59 µM]
miR-21 reporter,29%,0%,21%,4%,-29%,.,1%,0%
Sfp PPTase inh,-8%,-13%,11%,-2%,4%,.,-10%,.
KDM4E inh,-5%,-3%,7%,-3%,2%,.,?,.
ALDH1A1 inh,0.32µM*,13µM*,1µM*,7.1µM*,?,.,2.2µM*,.
Lamin A splicing,.,?,?,?,-5%,.,20%,?

9: CC(=O)Nc1ccc(NS(=O)(=O)c2ccc(Cl)s2)cc1
10: CC(=O)Nc1ccc(NS(=O)(=O)c2c(Cl)cccc2Cl)cc1
11: CCOC(=O)N1CCC(N2C(=O)c3ccccc3C2Nc2ccc(C)cc2)CC1 (stereo not drawn)
12: CCOC(=O)N1CCC(N2C(=O)c3ccccc3C2Nc2ccc(S(=O)(=O)N(CC)CC)cc2)CC1 (stereo not drawn)
13: CCOC(=O)N1CCC(N2C(=O)c3ccccc3C2Nc2ccccc2)CC1 (stereo not drawn)
14: O=[N+]([O-])c1cccc(CN2C(COCc3ccccc3)CCC=CS2(=O)=O)c1 (stereo not drawn)
15: COc1ccc(Cc2nc3c4cnn(-c5cccc(F)c5)c4ncn3n2)cc1
16: Cc1cccc(C(=O)NC2C(=O)NNC2c2ccc(Cl)cc2)c1 (stereo not drawn)

assay / compound,9,10,11,12,13,14,15,16
G9a block,24%[12.7 µM],?,?,?,-19%,.,-6%[59 µM],16µM*
miR-21 reporter,2%,-3%,6%,-1%,1%,.,1%,-4%
Sfp PPTase inh,8%,79µM*,12%,13%,4%,11%,.,-11%
KDM4E inh,-3%,-9%,-7%,8%,4%,.,.,?
ALDH1A1 inh,0%,.,32µM*,0.2µM*,?,.,.,-6%
Lamin A splicing,.,.,-2%,.,-4%,.,.,.

17: O=C(c1ccc(OC2CCN(CCc3ccccc3)CC2)cc1)N1CCCCC1CCCO (stereo not drawn)
18: CCCCCCC#CC1C=CC(OC(C)=O)C(COC(C)=O)O1 (stereo not drawn)
19: O=c1cc(-c2ccc(O)cc2)oc2cc(O[C@@H]3O[C@H](CO)[C@H](O)[C@H](O)[C@H]3O)cc(O)c12
20: O=c1cc(-c2ccc(O)c(O)c2)oc2cc(O)c(C3OC(CO)C(O)C(O)C3O)c(O)c12 (stereo not drawn)
21: O=c1cc(-c2ccc(O)c(O)c2)oc2cc(OC3OC(CO)C(O)C(O)C3O)cc(O)c12 (stereo not drawn)
22: CC(C)N(Cc1ccccc1)c1ncnc2c1nnn2C
23: O=C(Nc1cc([N+](=O)[O-])ccc1O)NC1CCS(=O)(=O)C1 (stereo not drawn)
24: O=C(Nc1cccc([N+](=O)[O-])c1)NC1CCS(=O)(=O)C1 (stereo not drawn)

assay / compound,17,18,19,20,21,22,23,24
G9a block,-7%,.,.,-3%[12.7 µM],.,-1%[59 µM],16µM*,59%
miR-21 reporter,0%,.,.,1%,.,-17%,.,1%
Sfp PPTase inh,2%,?,6%,-12%,-13%,.,.,0%
KDM4E inh,.,.,.,14µM*,11µM*,.,.,.
ALDH1A1 inh,.,3.2µM*,.,-10%,?,.,.,.
Lamin A splicing,.,.,.,.,.,-13%[46 µM],.,.

Some of the entries so far, with values under each structure:
Fields – G9a block, miR-21 reporter, Sfp PPTase inh, KDM4E inh, ALDH1A1 inh, Lamin A splicing
21. O=c1cc(-c2ccc(O)c(O)c2)oc2cc(OC3OC(CO)C(O)C(O)C3O)cc(O)c12 (stereo not drawn)
→ ., ., -13%, 11µM*, ?, .
19. O=c1cc(-c2ccc(O)cc2)oc2cc(O[C@@H]3O[C@H](CO)[C@H](O)[C@H](O)[C@H]3O)cc(O)c12
→ ., ., 6%, ., ., .
18. CCCCCCC#CC1C=CC(OC(C)=O)C(COC(C)=O)O1 (stereo not drawn)
→ ., ., ?, ., 3.2µM*, .
22. CC(C)N(Cc1ccccc1)c1ncnc2c1nnn2C
→ -1%[59 µM], -17%, ., ., ., -13%[46 µM]

The list goes on:
25: O=C(Cn1cnc2cc([N+](=O)[O-])ccc2c1=O)NCCc1ccc(F)cc1
26: O=C(Cn1cnc2cc([N+](=O)[O-])ccc2c1=O)NC1CCS(=O)(=O)C1 (stereo not drawn)
27: CCOc1cc(C(=O)Nc2ccc3oc(-c4ccc(F)cc4Cl)nc3c2)cc(OCC)c1OCC
28: Cc1cc(C)c(NC(=O)CN2C(=O)CCn3nc(-c4cccn4C)cc32)c(C)c1
29: O=C(C1CCN(S(=O)(=O)c2cccc3nonc23)CC1)N1CCN(c2ccccc2)CC1
30: NC(=O)c1cccc(C(N)=O)n1
31: Cc1ccc(N=C2NC(=O)/C(=C/C=C/c3ccco3)S2)cc1
32: Cc1cccc(N=C2NC(=O)/C(=C/C=C/c3ccco3)S2)c1C

assay / compound,25,26,27,28,29,30,31,32
G9a block,9%,50µM*,2%[59 µM],-28%[59 µM],-29%[59 µM],3%,11µM*,18µM*
miR-21 reporter,-2%,0%,-1%,10%,16%,0%,-17%,-12%
Sfp PPTase inh,10%,?,.,.,.,14%,?,40µM*
KDM4E inh,-11%,?,.,.,.,9%,25µM*,3%
ALDH1A1 inh,32µM*,-2%,.,.,.,6%,4.5µM*,2.8µM*
Lamin A splicing,.,?,.,-19%[46 µM],.,8%[46 µM],-4%,-2%

33: O=C1NC(=Nc2ccccc2)S/C1=C\C=C\c1ccco1
34: Cc1ccc(S(=O)(=O)/N=C/N(C)C)cc1
35: Cc1ccc(S(=O)(=O)N/N=C/c2ccc(C(=O)O)cc2)cc1
36: Cc1ccc(S(=O)(=O)N(C)/N=C/c2ccc(C(=O)O)cc2)cc1
37: CN(C)c1ccc(/C=N/NS(=O)(=O)c2ccc(Br)cc2)cc1
38: CC(=O)NCc1ccc(S(=O)(=O)N/N=C/c2ccc(Br)cc2)cc1
39: Cc1ccc(S(=O)(=O)/N=C/c2ccc(N(C)C)cc2)cc1
40: COc1cc2nc(SCc3ccc(Cl)cc3)n3nc(CCn4nc(C)cc4C)nc3c2cc1OC

assay / compound,33,34,35,36,37,38,39,40
G9a block,?,24%[59 µM],11µM*,45µM*,40µM*,?,17%[59 µM],-33%[59 µM]
miR-21 reporter,-7%,3%,-3%,0%,-6%,-14%,-3%,-10%
Sfp PPTase inh,14%,28%,-14%,8%,-7%,8%,23%,.
KDM4E inh,-3%,10%,4%,-6%,-2%,?,-20%,.
ALDH1A1 inh,14%,10%,-11%,-14%,.,-13%,13µM*,.
Lamin A splicing,-21%,?,3%,.,.,-3%,-15%,.

41: CCOC(=O)COc1ccc(C)cc1C(=O)c1ccn2nc(-c3ccc(Cl)cc3)cc2n1
42: CCN(CC)c1ccc(/C=N/NS(=O)(=O)c2cccc([N+](=O)[O-])c2)cc1
43: CC(=O)NCc1ccc(S(=O)(=O)N/N=C/c2ccccc2)cc1
44: COc1cccc(/C=C/C(=O)OCC(=O)Nc2ccc(Cl)c(S(=O)(=O)N(C)C)c2)c1OC
45: O=C(O)[C@@H]1[C@@H]2C[C@@H]3[C@@H](OC(=O)[C@@H]31)[C@H]2Br
46: CC1(C2(O)CCCCC2)NCCc2ccccc21 (stereo not drawn)

assay / compound,41,42,43,44,45,46
G9a block,10%[59 µM],11µM*,3.2µM*,-3%,.,32µM*
miR-21 reporter,-3%,-8%,-9%,-2%,.,.
Sfp PPTase inh,.,?,-1%,26%,.,.
KDM4E inh,.,-5%,?,?,.,.
ALDH1A1 inh,.,3.5µM*,-4%,?,8%[13.5 µM],.
Lamin A splicing,.,-11%,-7%,-18%[46 µM],.,.
